Consider 1 substance from patent publication US7220727B2, “Aminoglycosides as antibiotics” (priority 2000, dated 2007).

This data set concerns NC[C@H]1O[C@H](O[C@H]2[C@H](O)[C@@H](O)[C@H](N)C[C@@H]2N)[C@H](N)[C@@H](O)[C@@H]1O. Briefly: purified protein, by the assay type. Conditions: other: APH(3′)-II; pH 7.5.

For APH(3′)-IIa (Klebsiella pneumoniae), the Km stood at 1 µM.

What is called Km is the substrate concentration at which the rate is half of its maximum.
